From patent US10787490B2, “Peptide inhibitors of interleukin-23 receptor and their use to treat inflammatory diseases” (Protagonist Therapeutics, Inc., priority 2015, dated 2020)

Amino acid sequences for entries named in this document (tags omitted). Residues count along the entry.
UniProt Q5VWK5, 24-629 limits assumed: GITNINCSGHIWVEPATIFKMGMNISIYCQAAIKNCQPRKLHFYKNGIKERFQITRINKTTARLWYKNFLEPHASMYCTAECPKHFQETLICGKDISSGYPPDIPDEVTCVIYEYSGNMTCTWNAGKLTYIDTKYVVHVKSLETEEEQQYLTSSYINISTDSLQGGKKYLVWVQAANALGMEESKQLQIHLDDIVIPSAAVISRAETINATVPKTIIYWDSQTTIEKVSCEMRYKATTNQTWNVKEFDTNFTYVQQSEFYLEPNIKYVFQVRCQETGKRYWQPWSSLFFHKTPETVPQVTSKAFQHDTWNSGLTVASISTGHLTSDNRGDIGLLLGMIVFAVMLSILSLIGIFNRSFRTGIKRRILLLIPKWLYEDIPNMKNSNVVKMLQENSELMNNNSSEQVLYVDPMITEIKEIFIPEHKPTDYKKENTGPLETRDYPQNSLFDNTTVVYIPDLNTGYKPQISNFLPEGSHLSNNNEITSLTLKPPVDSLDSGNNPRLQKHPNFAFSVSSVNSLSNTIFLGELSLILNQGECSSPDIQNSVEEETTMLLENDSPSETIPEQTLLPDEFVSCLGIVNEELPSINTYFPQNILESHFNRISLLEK
UniProt Q5VWK5, 24-354 limits assumed, looked up: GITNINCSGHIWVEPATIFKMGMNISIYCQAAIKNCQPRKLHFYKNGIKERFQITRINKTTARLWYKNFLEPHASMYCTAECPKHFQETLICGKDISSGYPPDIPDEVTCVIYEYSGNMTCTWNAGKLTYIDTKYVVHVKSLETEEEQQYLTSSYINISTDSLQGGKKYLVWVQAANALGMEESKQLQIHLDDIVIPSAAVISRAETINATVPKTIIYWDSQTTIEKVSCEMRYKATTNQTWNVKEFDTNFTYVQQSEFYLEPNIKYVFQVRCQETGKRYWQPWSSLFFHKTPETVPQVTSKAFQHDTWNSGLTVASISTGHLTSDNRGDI

Assays:
[1] = target: IL-23R-expressing DB cells (Homo sapiens, UniProt Q5VWK5); assay: cell-based; assay type: cell-based
[2] = target: T1, human IL-23R (IL23R_huFC) (Homo sapiens, UniProt Q5VWK5); assay: biochemical; details: Human ELISA IC50
[3] = target: T1, human IL-23R (IL23R_huFC); details: read-out: Human ELISA; Cys/Pen peptides, class symbols
[4] = tested on: TNBS-induced acute colitis, Sprague-Dawley rats; assay: TNBS induced colitis in rat; assay type: in vivo
[5] = Table E3H, DB cells, IL-23 0.5 nM, read-out: pStat3 HTRF IC50
[6] = Table E4B, class symbols, DB cells, IL-23 0.5 nM, read-out: pStat3 HTRF IC50

Compound: CC(=O)N[C@@H]1CCSC[C@@H](C(=O)N[C@@H](Cc2ccc(OCCN)cc2)C(=O)N[C@@H](Cc2ccc3ccccc3c2)C(=O)NC2(C(=O)N[C@@H](CCC(=O)O)C(=O)N[C@@H](CC(N)=O)C(=O)N[C@@H](CC(N)=O)C(N)=O)CCOCC2)NC(=O)[C@H](CCC(N)=O)NC(=O)[C@H](Cc2c[nH]c3ccccc23)NC(=O)[C@H]([C@@H](C)O)NC(=O)[C@@H](CCC(N)=O)NC1=O [SEQ ID NO: 980]
- IC50 ([1]; Cell assay (nM) Hu DB Cell (pSTAT3), IC50): 0.6 nM
- IC50 ([1]; pStat3 HTRF IC50): < 10 nM
- IC50 [2]: < 10 nM

Compound: CC(=O)N[C@H]1CSSC[C@@H](C(=O)N[C@@H](Cc2ccc(O)cc2)C(=O)N[C@@H](Cc2c[nH]c3ccccc23)C(=O)N[C@@](C)(CCCN)C(=O)N[C@@H](CCC(=O)O)C(=O)N[C@@H](CC(N)=O)C(=O)NCC(N)=O)NC(=O)[C@H](CCC(N)=O)NC(=O)[C@H](Cc2c[nH]c3ccccc23)NC(=O)[C@H]([C@@H](C)O)NC(=O)[C@H](CCC(N)=O)NC1=O [compound 457]
- IC50 [1, 5]: 12 nM

Compound: CC(=O)N[C@H]1CSSC[C@@H](C(=O)N[C@@H](Cc2ccc(O)cc2)C(=O)N[C@@H](Cc2c[nH]c3ccccc23)C(=O)N[C@@](C)(CCCN)C(=O)N[C@@H](CCC(=O)O)C(=O)N[C@@H](CC(N)=O)C(=O)NCC(N)=O)NC(=O)[C@H](CCC(N)=O)NC(=O)[C@H](Cc2c[nH]c3ccccc23)NC(=O)[C@H]([C@@H](C)O)NC(=O)[C@H](CCC(N)=O)NC1=O [compound 458]
- IC50 [1, 5]: 7 nM

Compound: CC(=O)NCCCC[C@H](NC(=O)C(C)(C)NC(=O)[C@H](Cc1ccc2ccccc2c1)NC(=O)[C@H](Cc1ccc(OCCN)cc1)NC(=O)[C@H]1NC(=O)[C@H](CCC(N)=O)NC(=O)[C@H](Cc2c[nH]c3ccccc23)NC(=O)[C@H]([C@@H](C)O)NC(=O)[C@H](CCC(N)=O)NC(=O)[C@@H](NC(=O)[C@H](Cc2ccc3ccccc3c2)NC(C)=O)C(C)(C)SSC1(C)C)C(=O)N[C@@H](CC(N)=O)C(=O)N[C@@H](CC(N)=O)C(N)=O [compound 648]
- IC50 [1, 6]: < 10 nM

Compound: CC(=O)NCCCC[C@H](NC(=O)C(C)(C)NC(=O)[C@H](Cc1ccc2ccccc2c1)NC(=O)[C@H](Cc1ccc(OCCN)cc1)NC(=O)[C@H]1NC(=O)[C@H](CCC(N)=O)NC(=O)[C@H](Cc2c[nH]c3ccccc23)NC(=O)[C@H]([C@@H](C)O)NC(=O)[C@H](CCC(N)=O)NC(=O)[C@@H](NC(=O)[C@@H](NC(C)=O)[C@@H](C)O)C(C)(C)SSC1(C)C)C(=O)N[C@@H](CC(N)=O)C(=O)N[C@@H](CC(N)=O)C(N)=O [compound 649]
- IC50 [1, 6]: < 10 nM

Compound: CC(=O)NCCCC[C@H](NC(=O)C(C)(C)NC(=O)[C@H](Cc1ccc2ccccc2c1)NC(=O)[C@H](Cc1ccc(OCCN)cc1)NC(=O)[C@H]1NC(=O)[C@H](CCC(N)=O)NC(=O)[C@H](Cc2c[nH]c3ccccc23)NC(=O)[C@H]([C@@H](C)O)NC(=O)[C@H](CCC(N)=O)NC(=O)[C@@H](NC(=O)[C@H](CC(C)C)NC(C)=O)C(C)(C)SSC1(C)C)C(=O)N[C@@H](CC(N)=O)C(=O)N[C@@H](CC(N)=O)C(N)=O [compound 650]
- IC50 [1, 6]: < 10 nM

Compound: CC(=O)NCCCC[C@H](NC(=O)[C@@](C)(NC(=O)[C@H](Cc1ccc2ccccc2c1)NC(=O)[C@H](Cc1ccc(C(N)=O)cc1)NC(=O)[C@H]1NC(=O)[C@H](CCC(N)=O)NC(=O)[C@H](Cc2c[nH]c3ccccc23)NC(=O)[C@H]([C@@H](C)O)NC(=O)[C@H](CCC(N)=O)NC(=O)[C@@H](NC(=O)[C@@H](CCCCN)NC(C)=O)C(C)(C)SSC1(C)C)C(C)C)C(=O)N[C@@H](CC(N)=O)C(=O)N[C@@H](CC(N)=O)C(N)=O [compound 667]
- IC50 [1, 6]: 1000 to 10000 nM

Compound: CC(=O)N[C@@H]1C(=O)N[C@@H](CCCNC(=N)N)C(=O)N[C@@H]([C@@H](C)O)C(=O)N[C@@H](Cc2c[nH]c3ccccc23)C(=O)N[C@@H](CCC(N)=O)C(=O)N[C@H](C(=O)N[C@@H](Cc2ccc(O)cc2)C(=O)N[C@@H](Cc2c[nH]c3ccccc23)C(=O)N[C@@H](CCCNC(=N)N)C(=O)N[C@@H](CCCCN)C(=O)N[C@@H](Cc2ccccc2)C(=O)NCC(=O)NCCOCC(=O)N[C@H](CCCCN)C(N)=O)CSSC1(C)C [compound 1024]
- IC50 ([1]; Cys/Pen peptides, read-out: p5tat3 HTRF): 100 to 1000 nM
- IC50 [3]: 100 to 1000 nM

Compound: C[C@]12C=CC(=O)C=C1CC[C@@H]1[C@@H]2[C@@H](O)C[C@@]2(C)[C@H]1CC[C@]2(O)C(=O)CO [prednisolone, reference compound]
- histopathology scores ([4]; Example 12): reduced
- colon macroscopic score ([4]; Example 12, vs vehicle): significantly reduced
- colon weight to colon length ratios ([4]; Example 12, vs vehicle): significant reduction
- weight loss ([4]; Example 12, Peptide 1185 37 mg/kg/day PO, anti-IL-23p19 4 mg/kg ip, prednisolone 10 mg/day P.O., vs vehicle): prevented

Like-named read-outs stand apart in the source and are kept apart here.
